## Membrane permeability of cyclic peptides

Data: CycPeptMPDB; original report Bhardwaj et al. 2022, doi:10.1016/j.cell.2022.07.019.

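Conditions beyond the assay type are not listed; see the original paper. The list need not hold all peptides of the study. Entries at the database's floor value (log10 P of -10) are not listed.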

PAMPA measures passive passage through an artificial lipid membrane.
Caco-2 values are permeabilities across monolayers of Caco-2 human intestinal cells.
Permeability is given as log10 of P in cm/s; higher (less negative) is more permeable.

The entry for CC(C)C[C@H]1NC(=O)[C@@H]2CCCN2C(=O)[C@H]2CCCN2C(=O)[C@H](C(C)C)NC(=O)[C@@H](CC(C)C)NC(=O)[C@@H]2CCCN2C(=O)[C@H]2CCCN2C(=O)[C@H](C(C)C)NC1=O lists PAMPA -6.74 (log10 cm/s). Listed for CC(C)C[C@H]1NC(=O)[C@H]2CCCN2C(=O)[C@@H]2CCCN2C(=O)[C@@H](Cc2ccccc2)NC(=O)[C@@H](C(C)C)NC(=O)[C@H](CC(C)C)N(C)C(=O)[C@@H](Cc2ccccc2)NC1=O: PAMPA -5.06 (log10 cm/s). CSCC[C@@H]1NC(=O)[C@@H]2CCCN2C(=O)[C@@H](C(C)C)NC(=O)[C@@H](C)N(C)C(=O)[C@@H](CC(C)C)NC(=O)[C@@H](CC(C)C)NC(=O)[C@@H]2CCCN2C(=O)[C@H]2CCCN2C1=O is reported with PAMPA -6.44 (log10 cm/s). CSCC[C@@H]1NC(=O)[C@H]2CCCN2C(=O)[C@H](C(C)C)NC(=O)[C@@H](CC(C)C)N(C)C(=O)[C@H](Cc2ccccc2)NC(=O)[C@H](CC(C)C)NC(=O)[C@@H](CC(C)C)N(C)C(=O)[C@@H]2CCCN2C(=O)[C@@H](CC(C)C)NC1=O has PAMPA -6.62 (log10 cm/s).

Listed for CSCC[C@@H]1NC(=O)[C@H](CC(C)C)NC(=O)[C@@H]2CCCN2C(=O)[C@H]2CCCN2C(=O)[C@@H](C)NC(=O)[C@H]2CCCN2C(=O)[C@@H](CC(C)C)NC(=O)[C@@H](C)N(C)C(=O)[C@H](CC(C)C)N(C)C(=O)[C@@H](C)N(C)C1=O: PAMPA -6.15 (log10 cm/s). CC(C)[C@@H]1C(=O)N[C@@H](Cc2ccccc2)C(=O)N2CCC[C@H]2C(=O)N(C)[C@H](Cc2ccccc2)C(=O)N[C@H](C)C(=O)N2CCC[C@H]2C(=O)N1C is reported with PAMPA -5.58 (log10 cm/s). CSCC[C@@H]1NC(=O)[C@H]2CCCN2C(=O)[C@@H]2CCCN2C(=O)[C@@H](C)NC(=O)[C@H]2CCCN2C(=O)[C@@H](C(C)C)NC(=O)[C@H](C(C)C)NC(=O)[C@@H](Cc2ccccc2)N(C)C(=O)[C@H](C)N(C)C1=O has PAMPA -7.16 (log10 cm/s). CC[C@@H](C)[C@H]1NC(=O)[C@H](CC(C)C)N(C)C(=O)[C@H]2CCCN2C(=O)[C@H](CC(C)C)NC(=O)[C@H](Cc2ccccc2)N(C)C(=O)CN(C)C(=O)[C@@H](C(C)C)NC(=O)[C@H](C)NC(=O)[C@H]2CCCN2C(=O)[C@@H]2CCCN2C1=O is reported with PAMPA -6.46 (log10 cm/s).

For CC(C)C[C@H]1C(=O)N2CCC[C@@H]2C(=O)N[C@@H](Cc2ccccc2)C(=O)N2CCC[C@H]2C(=O)N[C@H](C(C)C)C(=O)N[C@H](Cc2ccccc2)C(=O)N1C the data give PAMPA -5.22 (log10 cm/s). CSCC[C@@H]1NC(=O)[C@H](C(C)C)NC(=O)[C@H]2CCCN2C(=O)[C@@H]2CCCN2C(=O)[C@H](C)NC(=O)[C@@H](C)N(C)C(=O)[C@@H](CC(C)C)N(C)C(=O)[C@@H](C(C)C)NC(=O)[C@@H]2CCCN2C1=O is reported with PAMPA -6.53 (log10 cm/s). CC[C@@H](C)[C@H]1NC(=O)[C@H](CC(C)C)NC(=O)[C@@H](CC(C)C)NC(=O)[C@H](C(C)C)NC(=O)[C@@H](Cc2ccccc2)N(C)C(=O)[C@@H]2CCCN2C(=O)[C@@H](CC(C)C)NC(=O)[C@H](CC(C)C)NC(=O)[C@H]2CCCN2C1=O has Caco-2 -5.46 (log10 cm/s).

A selection of 2 entries from above:

CC[C@@H](C)[C@H]1NC(=O)[C@H](CC(C)C)NC(=O)[C@@H](CC(C)C)NC(=O)[C@H](C(C)C)NC(=O)[C@@H](Cc2ccccc2)N(C)C(=O)[C@@H]2CCCN2C(=O)[C@@H](CC(C)C)NC(=O)[C@H](CC(C)C)NC(=O)[C@H]2CCCN2C1=O has Caco-2 -5.46 (log10 cm/s).
CC(C)C[C@H]1C(=O)N2CCC[C@@H]2C(=O)N[C@@H](Cc2ccccc2)C(=O)N2CCC[C@H]2C(=O)N[C@H](C(C)C)C(=O)N[C@H](Cc2ccccc2)C(=O)N1C has PAMPA -5.22 (log10 cm/s).